These results are taken from PubChem BioAssay AID588627 (Johns Hopkins Ion Channel Center, 2011).

By UniProt entry, the sequences of proteins in these tests, tags left out. Where a name states a change or a piece, a line headed by the entry shows the natural chain unless it says otherwise.
UniProt Q96LB2: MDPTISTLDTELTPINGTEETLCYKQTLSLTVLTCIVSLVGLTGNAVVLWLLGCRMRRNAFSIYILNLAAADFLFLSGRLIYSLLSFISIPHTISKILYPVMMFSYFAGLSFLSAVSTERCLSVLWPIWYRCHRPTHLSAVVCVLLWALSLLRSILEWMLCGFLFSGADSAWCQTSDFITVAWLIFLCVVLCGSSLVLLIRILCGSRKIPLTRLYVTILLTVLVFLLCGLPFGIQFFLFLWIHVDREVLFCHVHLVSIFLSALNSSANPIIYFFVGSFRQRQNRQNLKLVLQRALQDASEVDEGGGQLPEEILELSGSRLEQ

SMILES strings stand for the structures. The entries are a selection whose mix differs from that of the whole data set. The source made the active and inactive calls.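 Rule for the calls: active = calcium response B-score plate-corrected fluorescence ratio at least 3 library SD, with starting fluorescence B-score inside 5 SD; inactive = the rest.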

For the assay, the target named is Mas-related G-protein coupled receptor member X1 (Homo sapiens) (UniProt Q96LB2). In words: MrgX1 activation via calcium signaling – HEK293 cells, Fluo-4 calcium flux, primary screen (AID 588627).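 Note: B-score of the peak-minus-trough calcium fluorescence change over baseline.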 The following applies: Fluo-4 calcium fluorescence, agonist mode, at 10 µM, active compounds read high. The method, boiled down:
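times = overnight plating, then 30 min 37 °C plus 30 min room-temperature dye loading | assay system = stable human MrgX1 HEK293 cell line | input = fifteen thousand cells per well | signal = kinetic calcium dye fluorescence, Fluo-4 NW | dosing = compound delivered in addition one of three | read-out = B-scored fluorescence response ratio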
On to `CN(C)C1(CNC(=O)c2ccc(Cl)c(S(N)(=O)=O)c2)CCCCC1`, for which the B-score is active: 37.3.

As for `Cc1c2non([O-])c-2c(C)[n+](=O)[n+]1[O-]`, the B-score is active: 40.
